These results are taken from patent publication US6586596B2, “Acetylcholine enhancers” (priority 1998, dated 2003).

Amino acid sequences for entries named in this document (tags omitted). Residues count along the entry.
UniProt P23979, 24-489 limits assumed: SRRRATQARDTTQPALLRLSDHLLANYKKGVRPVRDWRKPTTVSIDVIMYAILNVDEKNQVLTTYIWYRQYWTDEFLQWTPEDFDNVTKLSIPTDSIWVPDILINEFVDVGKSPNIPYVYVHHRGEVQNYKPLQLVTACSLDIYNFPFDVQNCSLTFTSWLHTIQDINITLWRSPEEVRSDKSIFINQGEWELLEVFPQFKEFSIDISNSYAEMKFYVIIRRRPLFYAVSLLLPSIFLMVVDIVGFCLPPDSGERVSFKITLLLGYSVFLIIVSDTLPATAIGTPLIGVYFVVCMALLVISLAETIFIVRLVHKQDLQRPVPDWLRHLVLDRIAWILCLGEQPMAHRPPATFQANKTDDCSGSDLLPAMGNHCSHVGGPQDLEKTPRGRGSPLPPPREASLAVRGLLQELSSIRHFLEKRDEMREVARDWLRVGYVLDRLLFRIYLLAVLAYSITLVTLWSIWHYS
UniProt P22303, 32-614 limits assumed: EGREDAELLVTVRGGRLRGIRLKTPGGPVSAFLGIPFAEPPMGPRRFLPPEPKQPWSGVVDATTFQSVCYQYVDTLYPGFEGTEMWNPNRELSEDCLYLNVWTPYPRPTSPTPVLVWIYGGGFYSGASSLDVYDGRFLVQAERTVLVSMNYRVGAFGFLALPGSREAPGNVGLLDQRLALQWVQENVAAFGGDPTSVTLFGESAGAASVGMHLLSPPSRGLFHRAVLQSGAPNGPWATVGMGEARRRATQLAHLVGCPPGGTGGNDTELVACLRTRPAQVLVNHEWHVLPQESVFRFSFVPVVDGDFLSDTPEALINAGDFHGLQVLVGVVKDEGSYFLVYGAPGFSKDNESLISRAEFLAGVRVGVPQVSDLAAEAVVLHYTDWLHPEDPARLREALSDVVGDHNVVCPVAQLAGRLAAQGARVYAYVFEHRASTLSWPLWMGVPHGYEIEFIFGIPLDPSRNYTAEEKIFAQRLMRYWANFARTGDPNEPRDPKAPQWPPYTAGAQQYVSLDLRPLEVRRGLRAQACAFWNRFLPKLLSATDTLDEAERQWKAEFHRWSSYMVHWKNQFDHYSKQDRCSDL

Assay [1] deals with 5-HT3 receptor (Mus musculus, UniProt P23979). Nature of the assay: serotonin 5-HT3 binding assay (NovaScreen), NIE-115 cells. As to conditions: 20 mM HEPES pH 7.4, 150 mM NaCl, 25° C., 60 minutes.
Assay [2] deals with AChE (Homo sapiens, UniProt P22303).

Broadly, the IC50 is the point on the concentration scale where inhibition reaches its midpoint. Read a low IC50 as inhibition by little substance. For orientation: Ki means a dissociation constant, usually derived from enzyme kinetics or from competition with a known ligand. Read a high Ki as weaker binding. `Nc1c2c(nc3ccccc13)CN(CCC1CCN(Cc3ccccc3)CC1)C2=O`: in assay [1], the IC50 was determined as 292 nM and the Ki turned out to be 134 nM.

In assay [2], `O=C1c2c(nc3ccccc3c2NCCC2CCN(Cc3ccccc3)CC2)CN1CCC1CCN(Cc2ccccc2)CC1` returned an IC50 of 83 nM. In assay [1], this compound showed an IC50 of 469 nM and an inhibition constant (Ki) of 215 nM.

For `CCCOc1c2c(nc3ccccc13)CN(CCC1CCN(Cc3ccccc3)CC1)C2=O`, in assay [1], the IC50 was found to be 288 nM and the Ki was 132 nM.

In assay [1], `CC(C)Oc1c2c(nc3ccccc13)CN(CCC1CCN(Cc3ccccc3)CC1)C2=O` gave an IC50 of 390 nM and a Ki of 179 nM.

`N#CCCCCOc1c2c(nc3ccccc13)CN(CCC1CCN(Cc3ccccc3)CC1)C2=O`: in assay [1], the IC50 is 216 nM and the Ki was 99.4 nM.

The compound `COc1c2c(nc3cccc(SC)c13)CN(CCC1CCN(Cc3ccccc3)CC1)C2=O` registered an IC50 in assay [2] of 210 nM. Moreover, in assay [1], the inhibition constant (Ki) is 50.1 nM.
